Drawing on ChEMBL document CHEMBL4406811, “Optimization and Mechanistic Characterization of Pyridopyrimidine Inhibitors of Bacterial Biotin Carboxylase” (J Med Chem, 2019), this text covers MIC for one compound.

The test concerns Escherichia coli. The test is described as follows: Antibacterial activity against Escherichia coli DM4100 measured after 18 to 20 hrs in presence of permeabilizing agent PMBN by broth microdilution method. Format: functional.

Each structure is given as a SMILES string.

What is called MIC is the smallest concentration in the dilution series that meets the test's criterion for growth inhibition.

Take `NCC1(O)CCN(c2nc3nc(N)ncc3cc2-c2c(Cl)cccc2Cl)C1` (stereo unspecified): the MIC is 8 µg/mL.
